Reference: US6133291A, “N-(imidazolylalkyl)substituted cyclic amines as histamine-H3 agonists or antagonists” (Schering Corporation, priority 1998, dated 2000)

Amino acid sequences for entries named in this document (tags omitted).
UniProt Q9JI35, whole entry: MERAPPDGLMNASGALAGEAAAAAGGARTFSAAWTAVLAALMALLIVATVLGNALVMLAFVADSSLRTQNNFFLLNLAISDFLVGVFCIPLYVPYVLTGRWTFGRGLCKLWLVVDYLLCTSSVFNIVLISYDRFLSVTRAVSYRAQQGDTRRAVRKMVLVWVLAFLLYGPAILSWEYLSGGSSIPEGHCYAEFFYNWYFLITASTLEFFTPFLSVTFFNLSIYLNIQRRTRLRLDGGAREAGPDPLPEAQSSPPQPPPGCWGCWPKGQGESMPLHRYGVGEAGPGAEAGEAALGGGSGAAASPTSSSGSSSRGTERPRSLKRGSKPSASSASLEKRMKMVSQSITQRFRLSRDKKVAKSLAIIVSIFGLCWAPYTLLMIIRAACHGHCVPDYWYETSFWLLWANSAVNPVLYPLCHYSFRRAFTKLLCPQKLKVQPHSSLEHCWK

Assays:
H3 receptors [1] = target: T1, H3 receptors (Cavia porcellus, UniProt Q9JI35); assay: pA2 at H3 receptor (guinea pig neuronal ileum contraction assay); details: HCl salt; pA2=-logEC50 as defined by J. Hey
Excerpt: (§1) The inventive compounds can readily be evaluated to determine activity at H3 receptors by known methods, including, for example, the guinea pig brain membrane assay and the guinea pig neuronal ileum contraction assay, both of which are described in U.S. Pat. No. 5,352,707.
pA2=-logEC50, as defined by J. Hey, Eur. J. Pharmacol., (1995), Vol. 294, 329.

H3 receptors [2] = target: T1, H3 receptors; assay: H3-Receptor Binding Assay (guinea pig brain membranes, [3H]R-α-methylhistamine or [3H]Nα-methylhistamine); details: HCl salt, pH 7.5, 30° C., 30 min
Method: as §1
The source of the H3 receptors in this experiment was guinea pig brain. The animals weighed 400-600 g. The brain tissue was homogenized with a solution of 50 mM Tris, pH 7.5. The final concentration of tissue in the homogenization buffer was 10% w/v. The homogenates were centrifuged at 1,000× g for 10 min. in order to remove clumps of tissue and debris. The resulting supernatants were then centrifuged at 50,000× g for 20 min. in order to sediment the membranes, which were next washed three times in homogenization buffer (50,000× g for 20 min. each). The membranes were frozen and stored at -70° C. until needed.
All compounds to be tested were dissolved in DMSO and then diluted into the binding buffer (50 mM Tris, pH 7.5) such that the final traction was 2 μg/ml with 0.1% DMSO. Membranes were then added (400 μg of protein) to the reaction tubes. […] Bound ligand was separated from unbound ligand by filtration, and the amount of radioactive ligand bound to the membranes was quantitated by liquid scintillation spectrometry. […]

`FC(F)(F)Oc1cccc(NC2CCN(CCCCc3c[nH]cn3)CC2)c1` gave a pA2 (H3 receptors [1]) of 8.1 and a Ki (H3 receptors [2]) of 7 nM.

Some compounds may have been tested in ways that are not shown here.
